Literature values, collected in US5891842A, “Methodology for eliciting an analgesic response in a living subject” (priority 1996, dated 1999).

Details: cited from earlier work

CN1CC[C@]23c4c5ccc(O)c4O[C@H]2C(=O)CC[C@H]3[C@H]1C5 [Hydromorphone, dihydromorphinone]
DURATION OF ACTION (analgesic effects after subcutaneous administration): 4 to 5 h | DOSE: amount given subcutaneously that produces approximately the same analgesic effects as 10 mg of morphine (subcutaneous): 1.5 mg
